These are literature values, as cited in paper PMC6237158, “HPLC–UV assay for the evaluation of inhibitors of plasma amine oxidase using crude bovine plasma” (Journal of Enzyme Inhibition and Medicinal Chemistry, 2018).

This data set concerns MAO B. As to conditions: 0.1 µM; pre-incubation conditions; cited from earlier work.

As to `C#CCN(C)[C@H](C)Cc1ccccc1` [selegiline], the “reduction of MAO B activity” value is listed as “more than 95%”.
